# Experiments:
# Protein sequences, listed by entry. Tags and fused reporters are not part of them.
# UniProt P34913, whole entry: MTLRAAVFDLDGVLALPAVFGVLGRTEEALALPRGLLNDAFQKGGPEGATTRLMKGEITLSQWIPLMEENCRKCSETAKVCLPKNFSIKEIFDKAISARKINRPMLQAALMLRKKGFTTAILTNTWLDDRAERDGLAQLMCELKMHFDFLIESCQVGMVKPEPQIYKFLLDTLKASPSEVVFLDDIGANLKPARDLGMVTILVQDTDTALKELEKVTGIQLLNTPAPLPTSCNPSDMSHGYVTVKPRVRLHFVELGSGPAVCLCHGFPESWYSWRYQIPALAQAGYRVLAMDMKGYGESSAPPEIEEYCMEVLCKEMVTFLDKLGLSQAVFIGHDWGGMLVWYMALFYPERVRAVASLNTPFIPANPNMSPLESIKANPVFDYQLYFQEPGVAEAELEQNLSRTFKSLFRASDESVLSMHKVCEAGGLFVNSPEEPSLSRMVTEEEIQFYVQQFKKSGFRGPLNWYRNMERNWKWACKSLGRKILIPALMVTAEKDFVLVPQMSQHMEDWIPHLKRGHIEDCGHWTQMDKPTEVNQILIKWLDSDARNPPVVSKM
# Human recombinant sEH [1] = target: T1, Human recombinant sEH (Homo sapiens, UniProt P34913); test: sEH enzyme kinetics (Lineweaver–Burk and Dixon plots); format: biochemical; details: Dixon plot analysis
# T1 construct: purchased Cayman Chemical (Ann Arbor, MI, USA) 10011669
# Human recombinant sEH [2] = target: T1, Human recombinant sEH; test: sEH assay (fluorescent substrate hydrolysis, inhibitory activity and IC50); format: biochemical; details: sEH inhibition
Substance,Ki (Human recombinant sEH [1]) [µM],IC50 (Human recombinant sEH [2]) [µM]
isoliquiritin apioside [Compound 6],32.7,22.2 ± 0.1
liquiritin apioside [Compound 3],89.1,72.3 ± 0.5

# From publication PMC10095357, “Inhibition of Soluble Epoxide Hydrolase Activity by Components of Glycyrrhiza uralensis” (International Journal of Molecular Sciences, 2023)
